Source: ChEMBL document CHEMBL5241102, “Drugs for the treatment of glaucoma: Targets, structure-activity relationships and clinical research” (Eur J Med Chem, 2021)

The chains behind the UniProt entries cited, without tags or fusion partners.
UniProt P30542, whole entry: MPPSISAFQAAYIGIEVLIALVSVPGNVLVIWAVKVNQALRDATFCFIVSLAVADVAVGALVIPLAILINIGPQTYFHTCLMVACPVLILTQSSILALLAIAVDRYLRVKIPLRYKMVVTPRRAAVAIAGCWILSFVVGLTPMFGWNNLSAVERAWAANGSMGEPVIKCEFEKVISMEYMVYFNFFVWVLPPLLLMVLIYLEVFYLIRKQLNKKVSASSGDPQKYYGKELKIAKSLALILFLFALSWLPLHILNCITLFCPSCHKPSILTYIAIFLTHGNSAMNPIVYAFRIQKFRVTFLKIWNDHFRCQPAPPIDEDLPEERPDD

Target: Adenosine receptor A1 (Homo sapiens) (UniProt P30542)
Assay: Binding affinity to adenosine A1 receptor (unknown origin) assessed as inhibition constant

K: 0.97 nM
Compound: O=[N+]([O-])OC[C@H]1O[C@@H](n2cnc3c(NC4CCCC4)ncnc32)[C@H](O)[C@@H]1O
